This note sets out measurements from patent US9428496B2, “Thiazolamine derivative and use thereof as anti-picornaviral infection medicament” (Institute of Pharmacology and Toxicology Academy of …, priority 2010, dated 2016).

One test concerns enterovirus Cox A16. In kind it is cell-based. The settings on record: CoxA16, Vero cells. On the procedure: (§1) Anti-picornaviral activity of the compounds of the present invention in in vitro model Test item: activity screening of compounds against enteroviruses EV71 and Cox A16 Test principle: using Vero cells as virus host, the cytopathic effect of Vero cells induced by the inhibition of compounds against enteroviruses EV71 and Cox A16 was measured.
(§2) 1. Virus strains: enteroviruses EV71 (Shenzhen 98) and Cox A16, passaging in the laboratory.
(§3) Test Method: Vero cells were incubated in a 96-well culture plate. After 24 hours, they were infected with EV71 and Cox A16 by adsorption for 2 hours. After discarding the virus solution, maintenance solutions containing different concentrations of samples and positive controls were added, and, at the same time, cell control wells and virus control wells were set. […] The half inhibitory concentrations (IC50) of the samples against EV71 and Cox A16 were respectively calculated according to the Reed-Muench method.

Test [1] deals with enterovirus EV71 (Shenzhen 98). The test is described as follows: Inhibition of cytopathic effect (CPE) induced by EV71 in Vero cells. It is filed as cell-based. On the procedure: as §1, §2, §3

For `NC(=O)c1ncn([C@@H]2O[C@H](CO)[C@@H](O)[C@H]2O)n1` [Con, ribavirin, reference compound], the “CoxA16 SI” value in the test with enterovirus Cox A16 worked out at 5.5. In test [1], the “EV71 SI” value is on record as 3.9.
